Consider one compound from patent publication US5104814A, “Assay kit and methods for neuroleptic drugs” (Schering Corporation, priority 1990, dated 1992).

Protein sequences, listed by entry. Tags and fused reporters are not part of them.
UniProt P18901, whole entry: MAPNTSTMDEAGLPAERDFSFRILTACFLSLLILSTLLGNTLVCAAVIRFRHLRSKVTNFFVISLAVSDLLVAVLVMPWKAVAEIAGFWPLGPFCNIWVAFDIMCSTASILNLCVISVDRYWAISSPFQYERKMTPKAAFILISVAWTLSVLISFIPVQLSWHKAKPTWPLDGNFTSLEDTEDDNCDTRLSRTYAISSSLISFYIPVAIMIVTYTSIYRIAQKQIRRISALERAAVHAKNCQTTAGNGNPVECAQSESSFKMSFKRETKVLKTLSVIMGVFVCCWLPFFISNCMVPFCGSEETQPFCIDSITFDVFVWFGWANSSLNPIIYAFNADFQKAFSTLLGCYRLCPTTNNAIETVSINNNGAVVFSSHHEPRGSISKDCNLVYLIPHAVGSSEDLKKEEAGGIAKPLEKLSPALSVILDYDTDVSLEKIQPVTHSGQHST

The experiment concerns the target T1, D-1 receptor (Rattus norvegicus, UniProt P18901).
T1 construct: Striatal tissue was excised, pooled, and homogenized; from tissue; host or cells: striatum of male Sprague-Dawley rats, homogenized and washed by centrifugation
Kind of experiment: Saturation binding of [N-methyl-^3 H] Compound in rat striatum. Particulars: ligand concentration 1.0 nM. On the procedure:
Male Sprague-Dawley rats (200 to 250 g) from Charles River Breeding Laboratories, Mass. were used to obtain brain tissue. The rats were decapitated, their brains removed and placed on ice. Striatal tissue was excised, pooled, and homogenized (Brinkman Polytron, 10 sec) in 100 volumes (v/v) of ice cold 50mM Tris-HCl buffer, pH 7.4 (at 25° C.). The homogenate was centrifuged at 20,000×g for 10 min. The resultant pellet was rehomogenized in Tris-HCl buffer and centrifuged again. The final pellet was resuspended in 50 mM Tris-HCl buffer pH 7.4 containing 120 mM NaCl, 5 mM KCL, 2 mM CaCl2, and 1 mM MgCl2.
Polypropylene incubation tubes (in triplicate) received 100 μl of various concentrations of drugs dissolved or suspended in 0.05 M Tris-HCl buffer, pH 7.4, containing 4 mg/ml methylcellulose, 100 μl of a solution of [N-methyl-^3 H] Compound in Tris-HCl buffer (final reaction mixture concentration=1.0 nM) and 800 μl of tissue suspension (3 mg/assay). At a ligand concentration of approximately 1.0 nM, binding was found in preliminary experiments to be a linear function of tissue concentration up to 8 mg per assay. […] The filters were monitored for radioactivity through liquid scintillation counting in Scintosol (Isolab, Inc.).
When binding was evaluated as a function of radioligand concentration, saturation of specific sites was clearly achieved while non-specific binding was minimal.

With `[3H]C([3H])([3H])N1CCc2cc(Cl)c(O)cc2C2c3ccccc3CCC21` (stereo not shown) [[N-methyl-^3 H] Compound], the “non-specific binding as share of total binding” value is given as 4-8%.
